Data from US20230235082A1, “SITE-SPECIFIC ANTIBODY CONJUGATES AND THE METHODS FOR PREPARATION OF THE SAME” (GLYCO-THERAPY BIOTECHNOLOGY CO., LTD., priority 2020, published 2023).

Legend:
SK-Br-3 (Her2+) cells = experiment: In vitro cytotoxicity, CellTiter-Glo cell viability, SK-Br-3; assay type: cell-based; conditions: 72 h, 0.001-100 nM
Method: (§1) SK-Br-3 (Her2+) and MDA-MB-231 (Her2−) cells were cultured in McCoy's 5A medium (Gibco) and DMEM (Gibco) supplemented with 10% FBS (Invitrogen) respectively. The cells were plated in 96-well plates with 5000 cells per well and were incubated for 24 hours at 37° C. and 5% CO2. After remove of the culture medium, the antibody samples (trastuzumab, trastuzumab-G2F-FAzP4MMAE and trastuzumab-G2F-FAzDBCO-MMAE) were added to culturing medium to a series of final concentrations (100 nM, 10 nM, 1 nM, 0.5 nM, 0.1 nM, 0.05 nM, 0.01 nM, 0.001 nM and 0 nM) and added to the plates respectively. The cells were incubated for 72 h at 37° C. and 5% CO2 and subjected to a CellTiter-Glo® Luminescent Cell Viability Assay (Promega) to measure the cell viability.
(§2) SK-Br-3 (Her2+) and BT-474(Her2+) were cultured in RPMI 1640 medium supplemented with 10% FBS (Gibco). MDA-MB-231 (Her2−) cells were cultured in DMEM (Gibco) supplemented with 10% FBS (Gibco). The cells were plated in 96-well plates with 5000 cells per well and were incubated for 24 hours at 37° C. and 5% CO2. […] The cells were incubated for 72 h at 37° C. and 5% CO2 and subjected to a CellTiter-Glo® Luminescent Cell Viability Assay (Promega) to measure the cell viability.
SK-Br-3 (Her2+), NCI-N87(Her2+) and BT-474(Her2+) were cultured in RPMI 1640 medium supplemented with 10% FBS (Gibco). […]

BT-474 (Her2+) cells = experiment: In vitro cytotoxicity, CellTiter-Glo cell viability, BT-474; assay type: cell-based; conditions: 72 h, 0.001-100 nM
Method: as §2
(§3) SK-Br-3 (Her2+), NCI-N87(Her2+) and BT-474(Her2+) were cultured in RPMI 1640 medium supplemented with 10% FBS (Gibco). MDA-MB-231 (Her2−) cells were cultured in DMEM (Gibco) supplemented with 10% FBS (Gibco). The cells were plated in 96-well plates with 5000 cells per well and were incubated for 24 hours at 37° C. and 5% CO2. After removing of the culture medium, the sample was added to the culture medium to a series of final concentrations (100 nM, 10 nM, 1 nM, 0.5 nM, 0.1 nM, 0.05 nM, 0.01 nM, 0.001 nM and 0 nM) and added to the plates respectively.

MDA-MB-231 (Her2−) cells = experiment: In vitro cytotoxicity, CellTiter-Glo cell viability, MDA-MB-231 as Her2-negative line; assay type: cell-based
Method: as §1, §2, §3
(§4) NCI-N87 (Her2+) cells were cultured in RPMI 1640 medium supplemented with 10% FBS (Gibco). MDA-MB-231 (Her2−) cells were cultured DMEM (Gibco) supplemented with 10% FBS (Gibco). The cells were plated in 96-well plates with 3000 cells per well and incubated for 24 hours at 37° C. and 5% CO2. […] The cells were incubated for 6 days at 37° C. and 5% CO2 and subjected to a CellTiter-Glo® Luminescent Cell Viability Assay (Promega) to measure the cell viability.

NCI-N87 (Her2+) cells = experiment: In vitro cytotoxicity, CellTiter-Glo cell viability, NCI-N87; assay type: cell-based, human; conditions: 6 days, 0.00001-100 nM
Method: as §3, §4

| Substance | killing cells (cell viability) (SK-Br-3 (Her2+) cells) | killing cells (cell viability) (BT-474 (Her2+) cells) | killing cells (cell viability) (MDA-MB-231 (Her2−) cells; 72 h, 0.001-100 nM) | killing cells (cell viability) (NCI-N87 (Her2+) cells) | killing cells (cell viability) (MDA-MB-231 (Her2−) cells; 6 days, 0.00001-100 nM) |
| --- | --- | --- | --- | --- | --- |
| trastuzumab-(Galβ1,4)GlcNAc-FAmAzDBCO-MMAE | high potent of killing cells | high potent of killing cells | but not | – | – |
| trastuzumab-G2F-FAmAzDBCO-MMAF | high potent of killing cells | high potent of killing cells | but not | – | – |
| trastuzumab-G2F-FAmDM4 | – | – | – | high potent of killing cells | but not |
| trastuzumab-G2F-FAmAzP4DXd | – | – | – | high potent of killing cells | but not |
| trastuzumab-(Galβ1,4)GlcNAc-FAmSucMMAE: "trastuzumab-(Galβ1,4)GlcNAc ... was incubated with GDP-Fuc derivatives" (GDP-FAmSucMMAE) "and Hp1,3-FucT"; "found as 148634 Da, DAR2" | – | – | – | high potent of killing cells | but not |
